The values below come from patent publication US6475993B2, “Treatment of hereditary diseases with gentamicin” (Universite Laval, priority 1998, dated 2002).

The nature of the data set: Blood concentration of gentamicin in mdx mice. It is filed as in vivo. To be noted: dose of about 35-40 mg/Kg/day gentamicin. The protocol:
In humans, the usual antibiotic dosage rate of gentamicin is of about 3-5 mg/Kg/day, non-divided dose, for intramuscular route of administration. To avoid toxicity, it is recommended that gentamicin dosage rates be adjusted to avoid blood concentrations higher than 12 μg/mL for prolonged periods of time. […] The blood circulation levels of gentamicin that would be effective in humans have not been calculated, but allometric calculation could bring a dose effective in mice close to an equivalent of about 1.5 to about 6 mg per Kg per day in humans. It is possible to co-administer agents to counteract the oto- or nephrotoxicity of high doses of gentamicin, such as 2,3 dihydroxybenzoate (DHB) as disclosed by Song and Schacht (1996) and by Pearce et al. (1985). Alternatively, aminoglycoside derivatives having an activity towards inserting an amino acid instead of stopping translation may be designed, taking gentamicin as a reference compound. […] Further, any mean by which gentamicin or gentamicin-like or derived molecules can be driven more directly to the site of action is within the scope of this invention.

As for gentamicin, the Blood concentration result is “about 65 μg/mL”.
